This is a selection; strong and weak results do not stand in their true shares. Some tests of the compounds listed are not included; inactive here does not mean inactive elsewhere. Active and inactive are the calls of the source.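 Rule for the calls: active = z-score above 3 at both the 24 hr and the 30 hr optical density reads; inactive = the rest, inconclusive results apart.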
assay: growth rescue of sdo1-depleted yeast, primary screen, S. cerevisiae, bone marrow failure model (AID 817);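 note: z-score against mean and SD of all compound wells on the same plate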; conditions: S. cerevisiae sdo1-depleted JHY4D growth rescue, OD600 30 h; at 10 µM; stronger effect = higher value; pdr5 snq2 efflux-pump mutant strain

Row | Structure (SMILES) | z-score
1 | CN(C)c1cccc(C(=O)NCC2(N(C)C)CCCCC2)c1 | inactive: -0.22
2 | O=C(OC1CN2CCC1CC2)C(CO)(c1ccccc1)c1ccccc1 (stereo not given) | inactive: 0.1
3 | CCN1CCCC(OC(=O)C2(O)c3ccccc3C=Cc3ccccc32)C1 (stereo not given) | inactive: 1.23
4 | CN(C)C1CCCC1OC(=O)C(O)(c1ccccc1)c1ccccc1 (stereo not given) | inactive: -0.35
5 | CC(C)N1C(=O)CC2(CCN(CCOC(=O)C(O)(c3ccccc3)c3ccccc3)CC2)C1=O | inactive: 0.8
